# Tested on: KB-V1 (DSM ACC 149), human cervix carcinoma, multidrug-resistant
# Experiment: Growth inhibition, MTT reduction in microtiter plates
# Assay type: cell-based
# Conditions: KB-V1, multiresistant cell line, incubation period of 5 days
row,SMILES,IC50 KB-V1* cervix [ng/mL]
1,"C=Cc1nc(/C=C(\C)[C@@H]2C[C@@H]3O[C@@H]3CCC[C@H](C)[C@H](O)[C@@H](C)C(=O)C(C)(C)[C@@H](O)CC(=O)O2)cs1 [20-vinyl-epo A, [1S-[1R*,3R*(E),7R*,10S*,11R*,12R*,16S*]]-3-[2-(2-Ethenyl-4-thiazolyl)-1-methylethenyl]-7,11-dihydroxy-8,8,10,12-tetramethyl-4,17-dioxabicyclo[14.1. 0]heptadecane-5,9-dione]",3
2,C/C(=C\c1csc(CN)n1)[C@@H]1C[C@@H]2O[C@@H]2CCC[C@H](C)[C@H](O)[C@@H](C)C(=O)C(C)(C)[C@@H](O)CC(=O)O1 [21-amino-epo A],30
3,"C/C(=C\c1csc(CN)n1)[C@@H]1C[C@@H]2O[C@]2(C)CCC[C@H](C)[C@H](O)[C@@H](C)C(=O)C(C)(C)[C@@H](O)CC(=O)O1 [21-amino-epo B, [1S-[1R*,3R*(E),7R*,10S*,11R*,12R*,16S*]]-3-[2-[2-(Aminomethyl)-4-thiazolyl]-1-methylethenyl]-7,11-dihydroxy-8,8,10,12,16-pentamethyl-4,17-dioxabicyclo[14.1.0]heptadecane-5,9-dione]",1.5
4,"C/C(=C\c1csc(CN=[N+]=[N-])n1)[C@@H]1C[C@@H]2O[C@]2(C)CCC[C@H](C)[C@H](O)[C@@H](C)C(=O)C(C)(C)[C@@H](O)CC(=O)O1 [21-azido-epo B, [1S-[1R*,3R* (E),7R*, 10S*,11R*,12R*,16S*]]-3-[2-[2-(Azidomethyl)-4-thiazolyl]-1-methylethenyl]-7,11-dihydroxy-8,8,10,12,16-pentamethyl-4,17-dioxabicyclo[14.1. 0]heptadecane-5,9-dione]",0.5
5,C/C(=C\c1csc(CCl)n1)[C@@H]1C[C@@H]2O[C@@H]2CCC[C@H](C)[C@H](O)[C@@H](C)C(=O)C(C)(C)[C@@H](O)CC(=O)O1 [21-chloro-epo A],8
